Experiments:
[1] = tested on: AP-1 induced transcriptional activity; experiment: Cellular Transrepressional Assay (AP-1 luciferase reporter in A549 cells, PMA-activated); format: cell-based; conditions: read-out: AP-1 (EC50, nM) (Cellular Transrepression Assay); A549 cells with 7x AP-1 luciferase reporter, 10 ng/ml PMA, 7 hours
Description: To measure the ability of test molecules to inhibit AP-1 induced transcriptional activity an A549 cell was utilized which was stably transfected with a plasmid containing 7× AP-1 DNA binding sites (pAP-1-Luc plasmid, Stratagene Co. La Jolla, Calif.) followed by the gene for luciferase. Cells were activated with 10 ng/ml of […] (PMA) plus or minus test molecules for 7 hours. After 7 hours a luciferase reagent was added to measure luciferase enzymatic activity in the cell. After a 10 minute incubation of luciferase reagent with cells, luminescence was measured in a TopCount luminescence counter. Repression of AP-1 activity was calculated as the percentage decrease in the signal induced by PMA alone. Test molecules were analyzed in the concentration range from 0.1 nM to 40 μM. EC50s were determined by using standard curve fitting methods such as Excel fit (Microsoft Co.).

The chains behind the UniProt entries cited, without tags or fusion partners.
UniProt P04150, whole entry: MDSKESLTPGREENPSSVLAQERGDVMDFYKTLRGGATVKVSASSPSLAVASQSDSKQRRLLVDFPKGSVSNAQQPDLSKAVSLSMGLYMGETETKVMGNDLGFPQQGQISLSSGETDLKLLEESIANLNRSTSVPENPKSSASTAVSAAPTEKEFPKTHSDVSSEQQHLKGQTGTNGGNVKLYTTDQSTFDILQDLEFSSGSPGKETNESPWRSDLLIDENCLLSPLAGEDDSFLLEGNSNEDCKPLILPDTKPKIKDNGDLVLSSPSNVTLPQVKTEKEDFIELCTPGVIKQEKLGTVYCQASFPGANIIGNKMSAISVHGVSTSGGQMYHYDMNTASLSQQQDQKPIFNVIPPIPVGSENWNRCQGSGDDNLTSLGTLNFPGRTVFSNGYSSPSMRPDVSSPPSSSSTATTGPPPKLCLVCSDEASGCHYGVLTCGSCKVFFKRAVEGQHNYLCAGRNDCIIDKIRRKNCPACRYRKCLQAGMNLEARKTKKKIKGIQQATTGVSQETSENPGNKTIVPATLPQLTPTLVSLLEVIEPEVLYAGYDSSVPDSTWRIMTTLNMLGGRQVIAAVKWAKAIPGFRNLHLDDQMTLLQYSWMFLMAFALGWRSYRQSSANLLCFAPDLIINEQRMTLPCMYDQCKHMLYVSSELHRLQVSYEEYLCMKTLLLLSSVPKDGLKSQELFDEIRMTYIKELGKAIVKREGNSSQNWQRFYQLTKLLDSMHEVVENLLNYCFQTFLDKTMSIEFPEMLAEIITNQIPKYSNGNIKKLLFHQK

[2] = target: human full-length glucocorticoid receptor (Homo sapiens, UniProt P04150); experiment: Glucocorticoid Receptor Binding Assay (II), fluorescence polarization competitor kit (Fluormone GS1); conditions: read-out: GR (Ki, nM) (GR Binding Assay (II)); cell lysate with recombinant human full-length GR, 1 nM Fluormone GS1, FP
[3] = target: human glucocorticoid receptor (Homo sapiens, UniProt P04150); experiment: Glucocorticoid Receptor Binding Assay (I), fluorescence polarization competitor kit (Fluormone GS Red); conditions: read-out: GR (Ki, nM) (GR Binding Assay (I)); purified human recombinant full-length GR 2 nM, 1 nM Fluormone GS Red, FP

Row | Structure (SMILES) | EC50 [1] | Ki [2] | Ki [3]
1 | CC(C)(C(=O)Nc1nccs1)[C@@H](c1ccccc1)c1ccc2c(cnn2-c2ccc(F)cc2)c1 | 0.81 nM |  | 
2 | CC(C)(C(=O)Nc1nccs1)[C@H](c1ccccc1)c1ccc2c(cnn2-c2ccc(F)cc2)c1 | 400 nM |  | 
3 | CC(C)(C(=O)Nc1nncs1)[C@@H](c1ccccc1)c1ccc2[nH]ncc2c1 |  | 0.54 nM | 
4 | CC(C)(C(=O)Nc1nncs1)[C@H](c1ccccc1)c1ccc2[nH]ncc2c1 | 701 nM |  | 
5 | CC(C)CC(c1ccc2c(cnn2-c2ccc(F)cc2)c1)C(C)(C)C(=O)Nc1nccs1 (single isomer, unassigned) [33-enant A] | > 10000 nM |  | 18 nM
6 | CC(C)CC(c1ccc2c(cnn2-c2ccc(F)cc2)c1)C(C)(C)C(=O)Nc1nccs1 (single isomer, unassigned) [33-enant B] | 11 nM |  | 13 nM
7 | CC(C)(C(=O)Nc1nccs1)C(c1ccc2c(cnn2-c2ccc(F)cc2)c1)C1CCCCC1 (single isomer, unassigned) [38-enant A] | 12 nM |  | 15 nM
8 | CC(C)(C(=O)Nc1nccs1)C(c1ccc2c(cnn2-c2ccc(F)cc2)c1)C1CCCCC1 (single isomer, unassigned) [38-enant B] | > 10000 nM |  | 14 nM
9 | C=C(C)CC(c1ccc2c(cnn2-c2ccc(F)cc2)c1)C(C)(C)C(=O)Nc1nncs1 (single isomer, unassigned) [54-enant A] | 5.8 nM | 1.2 nM | 
10 | C=C(C)CC(c1ccc2c(cnn2-c2ccc(F)cc2)c1)C(C)(C)C(=O)Nc1nncs1 (single isomer, unassigned) [54-enant B] | 3.2 nM | 0.9 nM | 
11 | CC(C)CCn1ncc2cc(C(c3ccccc3)C(C)(C)C(=O)Nc3nncs3)ccc21 (single isomer, unassigned) [66-enant A] | 62 nM |  | 
12 | CC(C)CCn1ncc2cc(C(c3ccccc3)C(C)(C)C(=O)Nc3nncs3)ccc21 (single isomer, unassigned) [66-enant B] | 1700 nM |  | 16 nM
13 | CCCCn1ncc2cc(C(c3ccccc3)C(C)(C)C(=O)Nc3nncs3)ccc21 (single isomer, unassigned) [68-enant A] | 192 nM |  | 6.1 nM
14 | CCCCn1ncc2cc(C(c3ccccc3)C(C)(C)C(=O)Nc3nncs3)ccc21 (single isomer, unassigned) [68-enant B] | 7710 nM |  | 32 nM
15 | CC(C)(C(=O)Nc1nncs1)C(c1ccccc1)c1ccc2c(cnn2-c2cccnc2)c1 (single isomer, unassigned) [86-enant A] | 95 nM |  | 3.7 nM
16 | CC(C)(C(=O)Nc1nncs1)C(c1ccccc1)c1ccc2c(cnn2-c2cccnc2)c1 (single isomer, unassigned) [86-enant B] | > 10000 nM |  | 

From patent US8067447B2, “Modulators of glucocorticoid receptor, AP-1, and/or NF-κB activity and use thereof” (Bristol-Myers Squibb Company, priority 2006, dated 2011)
